## Binding of CDR-mutated scFvs to a peptide of the spike HR2 region

Data: MIT Lincoln Laboratory AlphaSeq set, Li et al. 2023, doi:10.1038/s41467-023-39022-2, as distributed in FLAb.

Binding partner: SARS-CoV-2 spike HR2 peptide, sequence PDVDLGDISGINAS.

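These sequences belong to a second round, designed from the earlier measurements on random variants of the parent. Their group label is 14L_En_HC (En: ensemble of fine-tuned language models; HC: hill climbing; a sequence that several methods proposed may carry one label only). AlphaSeq pools MATa yeast showing the antibodies with MATalpha yeast showing the peptide. The frequency of each diploid, read from paired DNA barcodes, reflects how well the two displayed proteins bind. A regression on co-assayed BCL2-family reference pairs converts the normalised counts of each replicate to an apparent Kd. There are six technical replicates.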

The variants keep the heavy chain, the linker and the frameworks of Ab-14 (scFv order VH, three GGGGS repeats, VL).
VH: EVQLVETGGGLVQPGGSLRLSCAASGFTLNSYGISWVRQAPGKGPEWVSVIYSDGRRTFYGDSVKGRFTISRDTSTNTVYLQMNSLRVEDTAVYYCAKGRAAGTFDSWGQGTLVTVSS
VL: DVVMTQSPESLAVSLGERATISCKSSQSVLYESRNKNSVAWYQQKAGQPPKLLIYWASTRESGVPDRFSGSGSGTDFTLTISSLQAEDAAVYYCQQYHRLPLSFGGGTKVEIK

Each variant is given by its three light chain CDRs, as the data file delimits them; those of the parent are KSSQSVLYESRNKNSVA, WASTRES, QQYHRLPLS.
Values are log10 of the apparent Kd in nM; lower means stronger binding.
An entry "nd" has no value in the source: the pair was not observed among the diploids in that replicate. This suggests poor binding but is not conclusive.

Variant KLGGVTEYEMRNSNSVA / QMTTRES / QQYHRLPLS showed 0.43, 0.81, 0.84, 0.49, 0.39, 0.92 (controls 0 of 18).
Variant QLLMATMQETYHKNSVA / HAETRED / QSYHRLPLS showed 0.51, 1.15, 0.82, 0.56, 0.43, 0.42 (controls 0 of 18).
Variant KITYMGEHFSTNHSAIA / QASTREQ / QQYHRLPIS showed 1.23, 1.67, 2.39, 2.01, 1.50, 1.74 (controls 0 of 18).
Variant KISMSYRFESQAKNSIA / EMTTREE / QSYHRLPLS showed 2.31, 2.44, nd, 2.44, 4.45, 3.41 (controls 0 of 18).
Variant ILYDSVLGLSRNKNSVA / DNSTRES / QQYDRLPLS showed nd, nd, 1.20, nd, 1.70, 4.53 (controls 0 of 18).
Variant KIGQLTTYHSQMGNSIA / QTSTREE / QQYHRLPLS showed 0.24, 0.09, 0.01, -0.02, 0.11, 0.19 (controls 2 of 18).
Variant MMSQMFEGLTTSKNPVA / QVSTREE / QQYHRLPLS showed nd, 2.06, 2.75, nd, 1.74, 1.11 (controls 0 of 18).
Variant KLSQLFYKESRNKNNVA / EMTTRGK / QQYDRLPLS showed 0.34, 0.11, -0.24, 0.15, -0.19, 0.14 (controls 0 of 18).
Variant KITQMVNGESHNKNSIA / QMTTREG / QQYHRLPLS showed 0.91, 0.68, 1.23, 1.46, 1.08, 1.44 (controls 0 of 18).
Variant HISQMVMYGSCQKNNVA / QVSLREE / QQYHRLPLS showed 1.37, 0.52, 0.58, 0.51, 1.22, 1.19 (controls 1 of 18).
Variant HMSQVTMYGYWLKNSVA / QTSTREE / QQYDRLPLS showed 0.90, 1.24, 0.75, 1.07, 0.65, 1.01 (controls 1 of 18).
Variant KLIQSVAMSSRMKDSIA / DNSTRES / QQYHRLPLS showed 3.07, 2.50, 2.90, 2.61, 2.67, 2.96 (controls 1 of 18).
Variant KLSQVTHMEHRNKNSIA / EMVTREK / QQYDRLPLS showed 0.42, 1.01, 1.53, 2.76, 0.74, 0.81 (controls 0 of 18).
Variant MISQLFMYGLRNYNSVA / QASTRES / QQYDRLPLI showed nd, nd, 1.74, 1.62, 2.69, 2.22 (controls 0 of 18).
Variant KIMQSLNYESFNVSSVA / GQETRER / QSYHRLPLS showed nd, 2.70, 1.67, nd, 2.46, 3.09 (controls 0 of 18).
Variant IISGSMHMESRNKNSVA / NAETREY / QHYDRLPLS showed 1.54, 1.91, 1.06, 2.03, 1.79, 1.81 (controls 0 of 18).
Variant MFSQLMAYGSRYANSVA / QASTRED / QQYHRLPLS showed 0.66, 0.09, 0.09, -0.05, 0.09, 0.40 (controls 0 of 18).
Variant KLSQSVRMESFNTNSVA / ENSTREA / QDYHRLPLS showed nd, nd, 2.23, 2.02, 2.34, nd (controls 0 of 18).
Variant KLYQATAMTSQMRNNVA / DLNERER / QQYFRLPLS showed 0.36, 0.47, 0.14, 0.39, 0.26, 0.28 (controls 4 of 18).
Variant IVSQSVLGESRNMNSVA / QTSERNY / QQYDRLPLS showed 0.56, 0.59, 0.73, 0.77, 0.53, 0.61 (controls 2 of 18).

Picked from the list: the 3 lowest averages where every replicate gave a value.

The variant KLSQLFYKESRNKNNVA / EMTTRGK / QQYDRLPLS showed 0.34, 0.11, -0.24, 0.15, -0.19, 0.14 (controls 0 of 18).
The variant KIGQLTTYHSQMGNSIA / QTSTREE / QQYHRLPLS showed 0.24, 0.09, 0.01, -0.02, 0.11, 0.19 (controls 2 of 18).
The variant MFSQLMAYGSRYANSVA / QASTRED / QQYHRLPLS showed 0.66, 0.09, 0.09, -0.05, 0.09, 0.40 (controls 0 of 18).

In the paper, a design with two or fewer of six values counts as a poor binder.
A sequence measured in both rounds can read differently, since the two assays cover different ranges.
Three control strains display no target. For all light chain designs, 4% of the pairings with them gave a signal, with a median of 2.64 and one signal in twenty below 1.59, so weak values seen in few replicates may be background. Also given: how often the same scFv was detected with the empty control strains.